Measurements taken from ChEMBL document CHEMBL1134429, “The development of a potential single photon emission computed tomography (SPECT) imaging agent for the corticotropin-releasing hormone receptor type” (Bioorg Med Chem Lett, 2001).

Target: T1, Corticotropin-releasing factor receptor 1 (Rattus norvegicus, UniProt P35353)
T1 sequence (P35353 whole entry): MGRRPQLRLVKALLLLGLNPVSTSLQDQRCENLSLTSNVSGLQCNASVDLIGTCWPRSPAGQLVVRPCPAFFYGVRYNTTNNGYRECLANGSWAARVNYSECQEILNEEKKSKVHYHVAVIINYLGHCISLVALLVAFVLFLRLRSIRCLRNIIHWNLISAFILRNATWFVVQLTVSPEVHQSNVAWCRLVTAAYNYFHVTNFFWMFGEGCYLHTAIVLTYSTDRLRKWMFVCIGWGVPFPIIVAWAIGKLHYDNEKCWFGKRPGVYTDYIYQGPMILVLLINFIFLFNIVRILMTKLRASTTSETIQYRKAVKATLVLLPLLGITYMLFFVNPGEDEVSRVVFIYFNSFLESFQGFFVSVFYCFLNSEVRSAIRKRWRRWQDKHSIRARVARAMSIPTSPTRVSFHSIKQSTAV
Assay: Binding affinity towards Corticotropin releasing hormone receptor type 1 of rat cerebellum using [125I]Tyr-sauvagine as radioligand.
Type: tissue-based

CCCN(CC1CC1)c1nc(C)nc(Nc2c(Cl)cc(Br)cc2Cl)c1Cl
Ki: 0.021 µM
